Data as given in PubChem BioAssay AID601 (SRMLSC, 2007).
The entries are a selection whose mix differs from that of the whole data set. Active and inactive are the calls of the source.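 The calls were made as follows: active = viability loss from added drug above about 55%, and viability with drug at most 40%, in both replicates (limit read from the data, passing the limit was not always enough); inconclusive = both conditions met in only one replicate; inactive = neither replicate meets both conditions.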

Assay: reversal of MRP1-mediated doxorubicin resistance, pilot screen, H69AR cells, doxorubicin co-treatment (AID 601)
Conditions: H69AR cells + 2 uM doxorubicin, CellTiter-Glo, 72 h; at 10 µM; hits give high values

Compound	differential viability (reversal)
Fc1ccccc1NC1CCN(Cc2ccccc2)CC1	inactive: 6.88%
